According to ChEMBL document CHEMBL1133595, “Discovery of chiral N,N-disubstituted trifluoro-3-amino-2-propanols as potent inhibitors of cholesteryl ester transfer protein” (J Med Chem, 2000):

Target: T1, Cholesteryl ester transfer protein (Homo sapiens, UniProt P11597)
T1 sequence (P11597 whole entry): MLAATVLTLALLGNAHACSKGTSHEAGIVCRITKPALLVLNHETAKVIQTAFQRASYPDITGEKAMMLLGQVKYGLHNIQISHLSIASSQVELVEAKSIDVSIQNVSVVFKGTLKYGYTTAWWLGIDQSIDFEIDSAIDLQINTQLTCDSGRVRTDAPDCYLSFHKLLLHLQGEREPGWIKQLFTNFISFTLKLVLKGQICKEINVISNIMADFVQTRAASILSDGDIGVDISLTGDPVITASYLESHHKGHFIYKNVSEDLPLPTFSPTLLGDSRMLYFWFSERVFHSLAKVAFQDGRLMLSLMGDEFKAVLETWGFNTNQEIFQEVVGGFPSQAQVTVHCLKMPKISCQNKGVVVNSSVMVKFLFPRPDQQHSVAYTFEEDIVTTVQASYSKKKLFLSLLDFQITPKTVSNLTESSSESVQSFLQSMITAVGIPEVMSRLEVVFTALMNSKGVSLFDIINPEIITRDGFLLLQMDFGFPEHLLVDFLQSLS
Test: Tested for inhibiting CETP-mediated transfer of [3H]-CE from HDL to LDL in vitro under buffered assay conditions in human serum.
Format: cell-free

OC(CN(Cc1cccc(OC(F)(F)F)c1)c1cccc(F)c1)C(F)(F)F (stereo unspecified) was tested, and the IC50 was > 200 µM.
